This note sets out measurements from publication PMC4110911 (Bioorganic & medicinal chemistry letters, 2014).

The chains behind the UniProt entries cited, without tags or fusion partners. Where a name states a change or a piece, a line headed by the entry shows the natural chain unless it says otherwise.
UniProt P49841: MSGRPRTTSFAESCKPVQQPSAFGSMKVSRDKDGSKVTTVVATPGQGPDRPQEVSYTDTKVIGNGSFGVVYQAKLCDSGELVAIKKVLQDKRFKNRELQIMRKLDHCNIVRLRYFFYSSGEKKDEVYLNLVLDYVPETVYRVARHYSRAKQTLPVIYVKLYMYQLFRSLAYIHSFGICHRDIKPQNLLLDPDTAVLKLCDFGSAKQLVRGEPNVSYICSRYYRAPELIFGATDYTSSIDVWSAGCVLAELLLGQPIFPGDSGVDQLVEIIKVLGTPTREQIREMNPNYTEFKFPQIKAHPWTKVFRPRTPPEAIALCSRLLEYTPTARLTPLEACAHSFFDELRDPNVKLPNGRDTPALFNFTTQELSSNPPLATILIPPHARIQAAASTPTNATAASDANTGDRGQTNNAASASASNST

One experiment addresses GSK-3β (Homo sapiens, UniProt P49841). The experiment in a line: GSK-3β kinase assay. Conditions: read-out: IC50 value, GSK-3β; mean ± standard deviation, triplicate. The class given is biochemical.
A further experiment concerns PKC. The experiment in a line: PepTag non-radioactive PKC assay. The class given is biochemical. Conditions: read-out: IC50 value, PKC; mean ± standard deviation, triplicate.

As a reminder, the IC50 is the concentration needed to halve the response being measured. Take `Cc1ccnc2c(NCc3ccc(O)cc3)cc(O)c(Oc3cccc(C(F)(F)F)c3)c12` [Compound 10]: the results for the IC50 on GSK-3β and in the experiment with PKC were 158 ± 19.1 nM and 750 ± 9.3 µM, respectively.
